Reference: US8304223B2, “Isoforms of pig liver esterase” (Enzymicals AG, priority 2007, dated 2012)
Like-named read-outs stand apart in the source and are kept apart here.

Tests used:
PLE 2 = target: T1, PLE 2 (Sus scrofa, UniProt Q29550, F477A/K481R/L479F); format: biochemical, pig; details: inhibitor 0.01 mM, 25° C.
T1 construct: made in house; host or cells: E. coli Origami (DE3) with pGro7 (GroEL/GroES coexpression), crude extract
T1 sequence (Q29550 19-562 F477A/L479F/K481R): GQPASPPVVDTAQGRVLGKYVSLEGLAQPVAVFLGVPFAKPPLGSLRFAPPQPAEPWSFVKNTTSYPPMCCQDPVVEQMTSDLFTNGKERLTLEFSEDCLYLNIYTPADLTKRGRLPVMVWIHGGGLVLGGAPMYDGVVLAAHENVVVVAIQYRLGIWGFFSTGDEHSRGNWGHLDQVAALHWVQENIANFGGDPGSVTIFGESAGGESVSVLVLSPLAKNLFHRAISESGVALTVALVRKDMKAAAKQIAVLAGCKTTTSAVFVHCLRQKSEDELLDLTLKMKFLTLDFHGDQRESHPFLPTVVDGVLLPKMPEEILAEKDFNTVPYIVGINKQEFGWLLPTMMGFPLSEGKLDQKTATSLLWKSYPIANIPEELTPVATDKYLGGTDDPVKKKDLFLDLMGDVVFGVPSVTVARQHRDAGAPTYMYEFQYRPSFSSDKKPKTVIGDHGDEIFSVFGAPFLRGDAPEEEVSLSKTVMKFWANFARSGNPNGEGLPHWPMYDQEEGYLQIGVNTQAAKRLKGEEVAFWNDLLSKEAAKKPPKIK
Description: (§1) Esterase activity was determined spectrophotometrically in sodium phosphate buffer (50 mM) by means of p-nitrophenyl acetate (10 mM, dissolved in dimethyl sulfoxide) as substrate. The amount of p-nitrophenol generated was determined at a wavelength of 410 nm (ε=15*10^3 M^−1 cm^−1) at RT and pH 7.5. 1 unit (U) is defined as the amount of enzyme capable of converting 1 μM p-nitrophenol per minute under analytical conditions (Krebsfänger, N., et. al., (1998) Enzyme Microb. Technol, 22, 641-646).
(§2) The inhibitability of the new PLE variants was determined by treating the crude extracts with any of three esterase inhibitors. […] Samples were taken at certain points in time and the remaining esterase activity was determined by the pNPA assay.

PLE 1 (γ-PLE) = target: T2, PLE 1 (γ-PLE) (Sus scrofa, UniProt Q29550); format: biochemical, pig; details: inhibitor 0.01 mM, 25° C.
T2 construct: made in house; host or cells: E. coli Origami (DE3) with pGro7 (GroEL/GroES coexpression), crude extract
T2 sequence (Q29550 with tags, fused parts or gaps): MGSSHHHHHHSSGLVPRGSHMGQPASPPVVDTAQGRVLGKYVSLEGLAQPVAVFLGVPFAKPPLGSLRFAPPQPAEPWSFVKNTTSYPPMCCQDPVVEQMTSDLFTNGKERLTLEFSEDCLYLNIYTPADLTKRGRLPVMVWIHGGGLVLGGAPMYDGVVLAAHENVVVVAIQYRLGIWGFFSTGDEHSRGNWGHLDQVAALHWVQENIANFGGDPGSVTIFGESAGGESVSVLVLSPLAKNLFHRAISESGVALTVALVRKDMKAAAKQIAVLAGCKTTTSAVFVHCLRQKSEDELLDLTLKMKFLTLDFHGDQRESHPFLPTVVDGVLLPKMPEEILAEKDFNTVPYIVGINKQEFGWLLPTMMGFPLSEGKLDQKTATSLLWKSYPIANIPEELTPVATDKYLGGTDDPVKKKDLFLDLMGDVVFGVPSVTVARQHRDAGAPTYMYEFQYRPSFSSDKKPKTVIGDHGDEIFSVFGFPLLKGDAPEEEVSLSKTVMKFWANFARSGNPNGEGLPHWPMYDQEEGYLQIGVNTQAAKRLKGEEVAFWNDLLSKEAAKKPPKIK
Description: as §1, §2

Compound: O=S(=O)(F)Cc1ccccc1 [Phenylmethylsulfonyl fluoride (PMSF), phenylmethylsulfonyl fluoride]
- Remaining activity in % (PLE 2; 1 min): 87%
- Remaining activity in % (PLE 2; 5 min): 82%
- Remaining activity in % (PLE 2; 30 min): 50%
- Remaining activity in % (PLE 2; 60 min): 36%
- Remaining activity in % (PLE 1 (γ-PLE); 1 min): 97%
- Remaining activity in % (PLE 1 (γ-PLE); 5 min): 85%
- Remaining activity in % (PLE 1 (γ-PLE); 30 min): 55%
- Remaining activity in % (PLE 1 (γ-PLE); 60 min): 46%
